Experimental findings from publication PMC12815673 are described below.

The experiment has as its target mGFP-hSERT (human) (UniProt P31645). Put plainly: single-molecule brightness analysis (TOCCSL, thinning out clusters while conserving stoichiometry of labeling); mGFP-hSERT in the bottom plasma membrane of cells, TIRF, room temperature, 15 s recovery after photobleaching; reports only on mobile molecules; control cells and cells depleted of cholesterol with 10 mM MβCD.

Where only a bound is given, the exact number is not on record here.

By stoichiometry N is commonly meant a count of units in the complex or per binding partner.

On to “mGFP-hSERT (from UniProt P31645 1-630) (natural protein; other documents disagree on this pair)”, for which the stoichiometry N was < 4.
